Earlier results, collected in patent publication US20060003989A1, “Compositions and methods using acetylcholinesterase (ACE) inhibitors to treat central nervous system (CNS) disorders in mammals” (priority 2002, published 2006).

System: cholinesterase
Details: in rats; cited from earlier work

COc1cc2c(cc1OC)C(=O)C(CC1CCN(Cc3ccccc3)CC1)C2 (stereo not shown) [donepezil]
minimal therapeutic concentration (MTC): 0.42 nmol/gm
